Reference: PubChem BioAssay AID1508591

Settings: rat; liver microsomes; pH 7.4; 15.0 min; 1.0 µM

half-life	Structure (SMILES)
17.1 min	Cc1nc(Nc2ncc(C(=O)Nc3c(C)cccc3Cl)s2)cc(N2CCN(CCO)CC2)n1
> 30 min	CN(Cc1cnc2nc(N)nc(N)c2n1)c1ccc(C(=O)N[C@@H](CCC(=O)O)C(=O)O)cc1
